Experimental findings from ChEMBL document CHEMBL3769315 (J Med Chem, 2016) are described below.

Each structure is given as a SMILES string.

The conditions of the series: human, huh-7.
Molecule `NCCOCCOCCOCCOCCN1CCN(C(c2ccc(Cl)cc2)c2ccc(Cl)cc2)CC1` showed a CC50 of 4.43 µM. Next, `CN1CCN(C(c2ccc(Cl)cc2)c2ccc(Cl)cc2)CC1`: 21.3 µM; `CCN1CCN(C(c2ccccc2)c2ccc(Br)cc2)CC1` (racemic): 35.2 µM. Next, `Brc1ccc(C(c2ccccc2)N2CCNCC2)cc1` (racemic): 7.93 µM. With `CN1CCN(C(c2ccccc2)c2ccccc2)CC1` [CYCLIZINE], the CC50 is greater than 100 µM.
